According to patent US20240216357A1 (SICHUAN HUIYU PHARMACEUTICAL CO., LTD., priority 2021, published 2024):
Read-outs that look alike come from different tables or passages of the source.

Chains of the proteins cited; added tags and fusions are not shown.
UniProt Q12809, whole entry: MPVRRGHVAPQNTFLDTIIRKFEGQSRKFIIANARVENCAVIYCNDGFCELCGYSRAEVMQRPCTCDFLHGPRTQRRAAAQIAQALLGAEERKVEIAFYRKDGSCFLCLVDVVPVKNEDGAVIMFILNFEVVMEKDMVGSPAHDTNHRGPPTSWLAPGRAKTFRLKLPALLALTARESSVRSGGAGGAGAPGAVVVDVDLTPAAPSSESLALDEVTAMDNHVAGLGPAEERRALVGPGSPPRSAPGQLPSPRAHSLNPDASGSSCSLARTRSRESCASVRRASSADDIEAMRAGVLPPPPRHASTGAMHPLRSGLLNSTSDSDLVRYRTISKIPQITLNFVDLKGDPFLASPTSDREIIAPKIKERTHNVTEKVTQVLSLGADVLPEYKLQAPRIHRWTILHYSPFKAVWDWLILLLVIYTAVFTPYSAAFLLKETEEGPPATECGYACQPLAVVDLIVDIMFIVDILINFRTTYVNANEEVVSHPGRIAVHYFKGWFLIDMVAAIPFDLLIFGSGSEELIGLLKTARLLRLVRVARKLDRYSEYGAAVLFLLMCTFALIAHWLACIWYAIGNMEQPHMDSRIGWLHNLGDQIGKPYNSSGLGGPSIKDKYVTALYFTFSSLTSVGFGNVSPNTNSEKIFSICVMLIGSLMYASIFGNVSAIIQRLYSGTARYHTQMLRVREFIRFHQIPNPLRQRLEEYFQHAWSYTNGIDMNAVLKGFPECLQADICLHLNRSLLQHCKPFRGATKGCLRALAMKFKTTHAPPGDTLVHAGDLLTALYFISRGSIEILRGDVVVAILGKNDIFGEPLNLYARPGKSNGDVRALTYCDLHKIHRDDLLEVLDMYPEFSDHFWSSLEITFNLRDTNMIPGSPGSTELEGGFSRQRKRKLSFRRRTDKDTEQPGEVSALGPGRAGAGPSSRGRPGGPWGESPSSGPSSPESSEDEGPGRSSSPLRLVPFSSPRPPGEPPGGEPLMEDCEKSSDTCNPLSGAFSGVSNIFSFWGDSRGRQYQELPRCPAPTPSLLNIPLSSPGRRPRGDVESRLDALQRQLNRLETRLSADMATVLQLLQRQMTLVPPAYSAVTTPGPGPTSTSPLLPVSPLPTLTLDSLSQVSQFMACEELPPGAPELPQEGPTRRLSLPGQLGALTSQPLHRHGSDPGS

Tests used:
LSD1 = LSD1 (Homo sapiens (Human), UniProt O60341); test: LSD1 enzyme activity detection (HTRF); assay type: biochemical; settings: read-out: Inhibition of enzymatic activity of LSD1 IC50
NCI-H1417 cells = test: In vitro cell proliferation detection (CellTiter-Glo, 7 days); assay type: cell-based
Caco-2 cells = settings: tested form: formate
[1] = target: voltage-gated potassium ion channel hERG (Homo sapiens (Human), UniProt Q12809)

Structure (SMILES) | IC50 (LSD1; HTRF, H3K4me1 substrate, tested form: formate) [nM] | IC50 (NCI-H1417 cells; read-out: NCI-H1417 proliferation inhibition IC50, tested form: formate) [nM] | Papp A→B (Caco-2 cells) [×10⁻⁶ cm/s] | Papp B→A (Caco-2 cells) [×10⁻⁶ cm/s] | efflux ratio (Caco-2 cells) | IC50 ([1]; tested form: formate) [nM] | IC50 (LSD1) [nM] | IC50 (NCI-H1417 cells; read-out: NCI-H1417 proliferation inhibition IC50) [nM] | IC50 [1] [nM]
Cc1noc2cc(-c3sc(C(=O)N4C5CCC4CC(N)C5)cc3-c3ccc(C#N)c(F)c3)c(F)cc12 (stereo not drawn) | 0.026 | 0.52 | 1.5 | 37.6 | 25.2 | 2100 | – | – | –
N#Cc1ccc(-c2nc(N3CCC(N)CC3)cc(O)c2-c2ccc(F)c(O)c2)cc1F [Example 58, 4-(6-(4-aminopiperidin-1-yl)-3-(4-fluoro-3-hydroxyphenyl)-4-hydroxypyridin-2-yl)-2-fluorobenzonitrile] | – | – | – | – | – | – | 1 | 8.78 | > 30000
